Experimental data from ChEMBL document CHEMBL3112548, “Synthesis and biological evaluation of novel tetrahydro-β-carboline derivatives as antitumor growth and metastasis agents through inhibiting the transforming growth factor-β signaling pathway” (J Med Chem, 2014).

What was measured:
NCI-H1299 = assay: Antimigratory activity against human H1299 cells assessed as decrease in cell migration after 12 hrs by wound healing assay; format: functional, cell-based
A549 = assay: Antimigratory activity against human A549 cells assessed as decrease in cell migration after 12 hrs by wound healing assay; format: functional, cell-based

O=C(Cc1ccccc1)N1CCc2c([nH]c3ccccc23)C1
Activity (NCI-H1299): Dose-dependent effect | Activity (A549): Dose-dependent effect
